Measurements published in patent publication US20210253518A1, “KINASE INHIBITOR” (NISSAN CHEMICAL CORPORATION, priority 2018, published 2021).

By UniProt entry, the sequences of proteins in these tests, tags left out. Residues count along the entry.
UniProt Q9NRM7, 553-1088 limits assumed: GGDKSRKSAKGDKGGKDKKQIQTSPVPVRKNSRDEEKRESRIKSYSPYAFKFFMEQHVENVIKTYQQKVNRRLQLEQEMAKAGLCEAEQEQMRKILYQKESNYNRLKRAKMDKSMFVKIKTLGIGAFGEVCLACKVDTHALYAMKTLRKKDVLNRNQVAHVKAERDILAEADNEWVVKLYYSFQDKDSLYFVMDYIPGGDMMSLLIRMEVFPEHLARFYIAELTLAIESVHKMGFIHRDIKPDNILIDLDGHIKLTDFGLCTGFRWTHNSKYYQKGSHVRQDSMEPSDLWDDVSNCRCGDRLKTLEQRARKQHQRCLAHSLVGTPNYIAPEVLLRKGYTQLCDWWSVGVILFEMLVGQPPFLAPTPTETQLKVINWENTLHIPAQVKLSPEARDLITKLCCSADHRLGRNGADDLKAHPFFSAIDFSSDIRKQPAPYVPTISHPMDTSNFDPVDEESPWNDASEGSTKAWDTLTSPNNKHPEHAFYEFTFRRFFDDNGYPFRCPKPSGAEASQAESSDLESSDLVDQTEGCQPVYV
UniProt O95835, 589-1130 limits assumed: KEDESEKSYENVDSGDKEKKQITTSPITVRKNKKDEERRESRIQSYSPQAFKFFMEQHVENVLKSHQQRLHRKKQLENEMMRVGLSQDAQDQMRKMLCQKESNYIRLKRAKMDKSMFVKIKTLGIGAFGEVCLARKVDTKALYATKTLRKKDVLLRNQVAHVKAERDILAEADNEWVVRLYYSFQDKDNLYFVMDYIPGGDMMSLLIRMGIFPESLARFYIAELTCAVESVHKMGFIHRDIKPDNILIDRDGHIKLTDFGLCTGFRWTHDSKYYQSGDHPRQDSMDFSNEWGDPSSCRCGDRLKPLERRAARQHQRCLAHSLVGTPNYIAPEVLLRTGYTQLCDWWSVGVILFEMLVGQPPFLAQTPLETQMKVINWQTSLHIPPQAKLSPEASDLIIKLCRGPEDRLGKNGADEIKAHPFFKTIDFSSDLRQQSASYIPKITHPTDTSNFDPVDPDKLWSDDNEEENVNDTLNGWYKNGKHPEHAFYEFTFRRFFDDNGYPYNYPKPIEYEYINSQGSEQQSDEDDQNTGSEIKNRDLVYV

Key:
LATS2 = LATS2 (Homo sapiens, UniProt Q9NRM7); assay: Kinase Assay method (Fluorospark Kinase/ADP Multi-Assay Kit); conditions: for IC50: read-out: LATS2 IC50, Kinase Assay method, 8 steps 10 μM to 0.3 nM
Procedure: (§1) For compound k-1:B-1 (racemate), GA-002A, GA-002B, GA-005A and GA-005B, inhibitory activity evaluation (calculation of IC50) was performed on LATS1 and LATS2 (manufactured by Carna Biosciences). The activity was measured using the Kinase Assay method described below. The compounds were added such that the test concentration of k-1:B-1 (racemate), GA-002A, GA-002B, GA-005A and GA-005B was in 8 steps (10 μM, 1 μM, 100 nM, […], 10 nM, 3 nM, 1 nM, 0.3 nM) from the final concentration of 10 μM to 0.3 nM.
(§2) As the analysis method of the data, the mean signal of the control well containing reaction components other than the evaluation compound was set to 0% inhibition, the mean signal without enzyme addition was set to 100% inhibition, and the inhibition rate was calculated from the mean signal of 2 wells of each test substance test. IC50 value was calculated using EXSUS (version 7.1.6, manufactured by CAC EXICARE Corporation).
(§3) 2 μL of a compound of the present invention solution at 2.5-fold concentration, 1 μL of substrate at 5-fold concentration (SGKtide: NH2—CKKRNRRLSVA-COOH, manufactured by SignalChem), ATP (manufactured by Sigma-Aldrich), MgCl2 (manufactured by FUJIFILM Wako Pure Chemical Corporation) solution (final concentration 10 μM, 400 μM or 5 mM), and 2 μL of kinase solution at 2.5-fold concentration (final concentration of LATS1 or LATS2 5 μg/mL), each prepared with assay buffer (20 mM HEPES, 0.01% Triton X-100, 2 mM DTT, pH 7.5), were mixed in the wells of a polypropylene 384-well plate (manufactured by Greiner Bio-One, #784900) and reacted at room temperature for 5 hr. Successively, 5 μL detection solution (Fluorospark (registered trade mark)Kinase/ADP Multi-Assay Kit; manufactured by FUJIFILM Wako Pure Chemical Corporation) was added, and the mixture was reacted at room temperature 30 min. Successively, 5 μL of a reaction quenching liquid (Fluorospark (registered trade mark) Kinase/ADP Multi-Assay Kit; manufactured by FUJIFILM Wako Pure Chemical Corporation) was added to discontinue the reaction. Thereafter, the ADP concentration of the reaction solution was quantified by EnSpire (manufactured by PerkinElmer) to detect the kinase reaction.

LATS1 = LATS1 (Homo sapiens, UniProt O95835); assay: as above; conditions: for IC50: read-out: LATS1 IC50, Kinase Assay method, 8 steps 10 μM to 0.3 nM
Procedure: as §1, §2, §3

[1] = tested on: YAP (phospho-S127 and total); assay: YAP phosphorylation inhibitory action in SKOV3 cells (HTRF, YAP-total kit / YAP phospho-S127 kit); conditions: 2D condition, 10 μM, 1 hr, Non-treatment as 100%
Procedure: Human ovarian cancer cell line SKOV3 (manufactured by DS Pharma Biomedical Co., Ltd) was precultured (single layer culture) in a 15% FBS-containing McCoy's 5a medium (manufactured by Sigma Ltd. Aldrich). The above-mentioned cells in the logarithmic growth phase were washed with PBS, a 0.25% (w/v) trypsin-1 mmol/L ethylenediaminetetraacetic acid (EDTA) solution (manufactured by Fujifilm Wako Pure Chemical Corporation) was added, and adherent cells were detached by incubating at 37° C. for 3 min. The above-mentioned medium was added and the mixture was centrifuged and resuspended in the same medium.
According to the method of patent document (WO 2014/017513), a composition of 10% FBS-containing DMEM medium (Phenol-red free, manufactured by FUJIFILM Wako Pure Chemical Corporation) containing 0.015% (w/v) deacylated gellan gum (KELCOGEL CG-LA, manufactured by SANSHO Co., Ltd.) was prepared using FCeM-series Preparation Kit (manufactured by FUJIFILM Wako Pure Chemical Corporation). […] The next day, the wavelengths at 665 nm and 615 nm were measured in the HTRF mode of EnVision (manufactured by PerkinElmer).
The obtained signal was calculated as follows. […]

Structure (SMILES) | LARS2 inhibitory rate (%) (LATS2; 100 nM) | LARS2 inhibitory rate (%) (LATS2; 1000 nM) | IC50 (LATS2) [nM] | LARS1 inhibitory rate (%) (LATS1; 100 nM) | LARS1 inhibitory rate (%) (LATS1; 1000 nM) | IC50 (LATS1) [nM] | phosphorylated YAP (%) [1] [%] | total YAP (%) [1] [%]
CC/C(=N\NC(=O)[C@H](C)Nc1ccccc1)c1ccc(O)c(C)c1O | 9 | 45 | 1540 | 33 | 77 | 481 |  | 
CC/C(=N\NC(=O)[C@@H](C)Nc1ccccc1)c1ccc(O)c(C)c1O | 91 | 98 | 8.23 | 101 | 101 | 2.67 | 10 | 86
